Drawing on ChEMBL document CHEMBL1127826, “Inhibitors of acyl-CoA:cholesterol acyltransferase (ACAT). 7. Development of a series of substituted N-phenyl-N'-[(1-phenylcyclopentyl)methyl]ureas with enhanced hypocholesterolemic activity” (J Med Chem, 1994), this text covers IC50 for one molecule.

The target of the assay is T1, Acyl-CoA:cholesterol acyltransferase (Oryctolagus cuniculus, UniProt Q95214).
T1 sequence (Q95214 whole entry): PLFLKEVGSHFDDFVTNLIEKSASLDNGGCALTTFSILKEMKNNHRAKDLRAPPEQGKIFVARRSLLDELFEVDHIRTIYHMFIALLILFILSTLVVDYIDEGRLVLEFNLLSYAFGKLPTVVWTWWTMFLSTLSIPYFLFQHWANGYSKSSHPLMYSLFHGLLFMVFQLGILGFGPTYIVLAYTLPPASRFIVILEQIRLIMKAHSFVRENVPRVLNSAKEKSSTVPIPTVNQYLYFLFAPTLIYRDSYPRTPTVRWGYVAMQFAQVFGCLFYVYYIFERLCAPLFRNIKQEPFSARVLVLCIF
Kind of assay: Tested for in vitro inhibition against Acyl coenzyme A:cholesterol acyltransferase of intestinal microsomes in cholesterol-fed rabbits. Set-up: species or system Microsome. Summed up: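 Microsomes were prepared from intestine of cholesterol-fed rabbits. ACAT activity was measured using [1-14C]oleoyl-CoA as substrate. Each determination was run in triplicate.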

pIC50: −log10 of the molar value.

A word on the pIC50: it is the negative decadic logarithm of the IC50, by convention in mol/L. A low value points to a high IC50. In the case of `CC(C)c1cccc(C(C)C)c1NC(=O)NCC1(c2cccc(CN(CCO)CCO)c2)CCCC1`, the negative logarithm of the IC50 (pIC50) is 7.33.
